Test [1] deals with T1, Peroxisome proliferator-activated receptor delta (Homo sapiens, UniProt Q03181).
T1 sequence (Q03181 whole entry): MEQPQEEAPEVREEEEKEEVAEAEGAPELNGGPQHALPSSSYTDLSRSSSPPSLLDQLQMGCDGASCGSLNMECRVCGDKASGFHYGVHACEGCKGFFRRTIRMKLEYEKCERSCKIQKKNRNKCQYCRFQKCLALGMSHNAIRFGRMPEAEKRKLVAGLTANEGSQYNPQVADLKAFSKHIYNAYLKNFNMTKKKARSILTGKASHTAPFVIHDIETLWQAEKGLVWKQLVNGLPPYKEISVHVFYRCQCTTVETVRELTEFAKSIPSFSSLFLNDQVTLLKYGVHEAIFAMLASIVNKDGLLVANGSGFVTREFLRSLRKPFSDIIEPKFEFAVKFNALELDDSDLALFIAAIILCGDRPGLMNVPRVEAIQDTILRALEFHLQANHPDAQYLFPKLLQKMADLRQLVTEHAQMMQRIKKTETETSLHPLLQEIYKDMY

Test [2] addresses T1, Peroxisome proliferator-activated receptor delta. This is another data set of the same source.

As a reminder, the EC50 is the concentration at which the effect is half-maximal. Lower therefore signals higher potency in that assay. By IC50 is commonly meant the concentration at which inhibition is half-maximal. High values mean a need for much substance, low ones inhibition by little substance.

Compound `CCCc1cc(Oc2ccccc2)ccc1OCCCOc1cccc(C2SC(=O)NC2=O)c1` (configuration not stated) yielded an EC50 in test [1] greater than 3 µM. This compound came in with an IC50 in test [2] greater than 10 µM.

The record behind these values is ChEMBL document CHEMBL1136170, “5-aryl thiazolidine-2,4-diones: discovery of PPAR dual alpha/gamma agonists as antidiabetic agents” (Bioorg Med Chem Lett, 2003).
